Test results reported in patent US11221326B2, “Method of preparing cells exhibiting drug resistance, method of screening anticancer drugs, and anticancer drug screening kit” (TOPPAN PRINTING CO., LTD., priority 2016, dated 2022).

Columns and labels:
Assay type in all cases: cell-based
[1] = tested on: human colorectal adenocarcinoma cell line HT29; assay: Drug sensitivity by viable count analysis (CNT %), HT29 cells cultured with exosomes from A549 (Example 2); conditions: Cetuximab 1 mg/mL, 72 hours
From the text: As a cell culture vessel, a Transwell cell culture insert (#3470 manufactured by Corning Incorporated) was used. The culture medium used was D-MEM (043-30085 manufactured by Wako Pure Chemical Corporation) containing 10 vol/vol % of bovine serum with non-extracellular secreted vesicles (EXO-FBS-50A-1 manufactured by System Biosciences, LLC), and 1 vol/vol % of penicillin-streptomycin (168-23191 manufactured by Wako Pure Chemical Corporation).
(§1) Drugs were each assessed three times using a final concentration of 1 mg/mL of Cetuximab (Erbitux manufactured by Merck Serono).
As exosomes derived from drug resistant cell line, a sample (exosomes) recovered from the culture supernatant of a human alveolar basal epithelial cell line A549 (ATCC (registered trademark) CCL-185) by ultracentrifugation were used. Assessments were conducted with respect to three conditions of 0 exosomes (Condition A) (no addition of the exosomes derived from the drug resistant cell line), 1×10^8 exosomes (Condition F), and 1×10^9 exosomes (Condition G).
In viable count analysis, drug sensitivity was assessed, as in Example 1, by using a trypan blue solution and by counting cells in the fluorescence mode of a cell counter (Countess II) manufactured by Life Technologies Inc. […]

[2] = tested on: human colorectal adenocarcinoma cell line HT29; assay: Drug sensitivity by viable count analysis (CNT %), HT29 cells cultured with exosomes from HCT116 (Example 1); conditions: Cetuximab 1 mg/mL, 72 hours
Experimental: (§2) As a cell culture vessel, a Transwell cell culture insert (#3470 manufactured by Corning Incorporated) was used. The culture medium used was D-MEM (043-30085 manufactured by Wako Pure Chemical Corporation) containing 10 vol/vol % of bovine serum (EXO-FBS-50A-1 manufactured by System Biosciences, LLC), and 1 vol/vol % of penicillin-streptomycin (168-23191 manufactured by Wako Pure Chemical Corporation).
as §1
As exosomes derived from drug resistant cell line, ones recovered from the culture supernatant of human colorectal adenocarcinoma cell line HCT116 (ATCC (registered trademark) CCL-247) by ultracentrifugation were used. […]
In viable count analysis, drug sensitivity was assessed by using a trypan blue solution and by counting cells in the fluorescence mode of a cell counter (Countess II) manufactured by Life Technologies Inc. […]
The cell structure dispersion is immersed in the trypan blue to count viable cells in the fluorescence mode of a cell counter (Countess II) manufactured by Life Technologies Corp. to assess the viable count. […]
(1) Viable cell counts resulting from Conditions A to D were analyzed using the method mentioned above to assess drug sensitivity.

[3] = tested on: human colorectal cancer cell line NCI-H508; assay: Drug sensitivity by viable count analysis (CNT %), NCI-H508 cells cultured with patient serum exosomes (Example 4); conditions: 72 hours
Experimental: as §2
Drugs were each assessed three times using final concentrations of 0.01 μg/mL and 0.1 μg/mL of Cetuximab.
Assessments were conducted for three conditions, i.e., equivalent to 0-μL serum (no addition of exosomes derived from serum), equivalent to 9-μL serum (addition of exosomes equivalent to 9-μL serum), and equivalent to 45-μL serum (addition of exosomes equivalent to 45-μL serum).
In viable count analysis, drug sensitivity was assessed, as in Example 1, by using a trypan blue solution and by counting cells in the fluorescence mode of a cell counter (Countess II) manufactured by Life Technologies Inc. In the drug sensitivity assessment,CNT(cell viability)%=(viable count with addition of drug)/(viable count with addition of no drug)×100(%) was used as an assessment value.
(1) 2×10^4 NCI^−H508 cells were seeded in a Transwell cell culture insert.
(2) An appropriate amount of culture medium was added to the Transwell cell culture insert, followed by culturing in a CO2 incubator (37° C., 5% CO2) for 24 hours.
(1) An appropriate amount of culture medium was mixed with exosomes to prepare exosome medium solutions containing exosomes equivalent to 0-μL serum (no addition of exosomes derived from serum), equivalent to 9-μL serum, and equivalent to 45-μL serum.
(2) Each solution was added to the Transwell cell culture insert, followed by culturing in a CO2 incubator (37° C., 5% CO2) for 6 hours.
(1) An appropriate amount of culture medium was mixed with a drug so as to have final concentrations of 0.01 μg/mL and 0.1 μg/mL.
(2) The mixture was added to the Transwell cell culture insert, followed by culturing in a CO2 incubator (37° C., 5% CO2) for 72 hours.

Substance: Cetuximab
- CNT % compared with 0 exosomes (Condition A), FIG. 2 ([1]; 1×10^8 exosomes from A549 (Condition F)): predominantly higher CNT %
- CNT % compared with 0 exosomes (Condition A), FIG. 2 ([1]; 1×10^9 exosomes from A549 (Condition G)): predominantly higher CNT %
- CNT % compared with 0 exosomes (Condition A), FIG. 1 ([2]; 1×10^9 exosomes from HCT116 (Condition B)): predominantly higher CNT %
- Drug sensitivity, FIG. 1 ([2]; exosomes derived from serum of a healthy person (Condition C)): more effectiveness
- CNT (%) Average value ([3]; Cetuximab 0.01 μg/mL, exosomes equivalent to 0-μL serum derived from patient exhibiting resistance): 53.6%
- CNT (%) Average value ([3]; Cetuximab 0.01 μg/mL, exosomes equivalent to 9-μL serum derived from patient exhibiting resistance): 54.8%
- CNT (%) Average value ([3]; Cetuximab 0.01 μg/mL, exosomes equivalent to 45-μL serum derived from patient exhibiting no resistance): 61.9%
- CNT (%) Average value ([3]; Cetuximab 0.01 μg/mL, exosomes equivalent to 45-μL serum derived from patient exhibiting resistance): 78.6%
- CNT (%) Average value ([3]; Cetuximab 0.1 μg/mL, exosomes equivalent to 0-μL serum derived from patient exhibiting resistance): 38.4%
- CNT (%) Average value ([3]; Cetuximab 0.1 μg/mL, exosomes equivalent to 9-μL serum derived from patient exhibiting resistance): 35.5%
- CNT (%) Average value ([3]; Cetuximab 0.1 μg/mL, exosomes equivalent to 45-μL serum derived from patient exhibiting no resistance): 41.7%
- CNT (%) Average value ([3]; Cetuximab 0.1 μg/mL, exosomes equivalent to 45-μL serum derived from patient exhibiting resistance): 56.0%
